# Apparent affinities of Ab-14 variants for a coronavirus HR2 peptide

Antigen: PDVDLGDISGINAS, a 14-residue peptide of the SARS-CoV-2 spike HR2 region.

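Phage display of a naive human antibody library on the peptide gave the parent. This is the validation round: designs drawn from the data on random variants, tested in the same kind of assay. Several design methods are mixed in this list. AlphaSeq pools MATa yeast showing the antibodies with MATalpha yeast showing the peptide. Pairs that bind mate more often; barcode pairs of the diploids are counted by sequencing. Read counts were normalised to the haploid input and turned into Kd by a linear fit to BCL2-family pairs of known affinity, for each replicate. The assay was run in six technical replicates.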

Parent scFv Ab-14: VH joined to VL by three GGGGS repeats. Changes lie in the light chain CDRs alone.
VH: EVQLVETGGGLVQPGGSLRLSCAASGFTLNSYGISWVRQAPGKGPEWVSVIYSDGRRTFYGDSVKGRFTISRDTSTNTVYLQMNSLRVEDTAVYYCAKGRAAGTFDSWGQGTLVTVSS
VL: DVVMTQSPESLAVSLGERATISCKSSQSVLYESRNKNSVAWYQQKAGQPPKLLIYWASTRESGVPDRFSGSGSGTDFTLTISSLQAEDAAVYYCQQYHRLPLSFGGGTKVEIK

The parent's light chain CDRs are KSSQSVLYESRNKNSVA, WASTRES, QQYHRLPLS; each variant's own CDRs replace them letter for letter.
The Kd shown is the geometric mean over detected replicates; a lower Kd is a better binder.
"no signal" means that the variant was in the library but no mating with the target was seen in any replicate; the authors take this as a sign of poor binding, and no number exists.
Empty control strains, which show no peptide, gave a signal in 4% of pairings with all light chain designs; the median was 430 nM and 95% of these signals were weaker than 38 nM. No background was subtracted.

CDR-L1 | CDR-L2 | CDR-L3 | Kd (apparent) | detected
KLSQSCLYESRMKNSVA | NASTRES | QQYHRLPLS | 2.0 nM | 6 of 6
KLSQSVLYESRNKNSVA | EASERES | QQYHRLPLS | 540 pM | 6 of 6
KFSQSYLYESRNSNSVA | NASTRES | QQYHRLPLS | 660 pM | 6 of 6
MMSQVTGMGQRHRNNVA | QTSTREE | QQYDRLPLM | 6.6 nM | 6 of 6
KLSQSVLYESRNKNSVA | AASTRMS | QQYHRLPLS | 1.3 nM | 6 of 6
IVSQLMIWGMHLKNSIA | EAETRLN | QQYERLPLF | 66 nM | 5 of 6
KFSQAVNTMSVSNSAVA | EMSTRPE | QQYNRLPLA | 5.4 nM | 6 of 6
HISQSVGMTSFQKNSVA | ENSTREN | QQYDRLPLS | 320 nM | 3 of 6
KLSQSCLYESRNKNSVA | EASQRES | QQYHRLPLS | 21 nM | 6 of 6
KMSQAVWYESRNKNSVA | EASLREQ | QQYHRLPLS | 460 pM | 6 of 6
MIYGAQRELGLAANSIA | DNVTRYS | QQYERLPLS | no signal | 0 of 6
SIRQVTDDYQATHSAIA | DASQIEP | QQYSILPLS | 1.0 nM | 6 of 6
KVQQSQLYESRNKNSVA | EASTRES | QQYHRLPLS | 580 pM | 6 of 6
KLSWSWLYESRNKNSVA | EASTRES | QQYHRLPLS | 700 pM | 6 of 6
KLSQSTLYDSPNKNSVA | WASTRES | QQYKRLPLS | 36 nM | 2 of 6
KSSQSVLYESRNKNSVA | YASTRET | QQYHRLPLS | 64 nM | 5 of 6
HTQHLGFGDYAWANSIA | ERSQVCE | QQYFRLPLI | 50 nM | 5 of 6
NVRMSLGYVQNVGSAVA | DASQVEM | QQYYTLPLT | 20 nM | 6 of 6
QFAGAMYGGGNDWSNIA | EAMTYIK | QQYSRLPLI | no signal | 0 of 6
ILSQMLLAAGNKHNSVA | QANYRES | QQYHRLPLS | 830 nM | 2 of 6
HITYGMYVAGRHHSSIA | QAETRAK | QQYDRLPLS | 9.3 nM | 6 of 6
KVQQSVLYESRNKNSVA | DASTRES | QQYHRLPLS | 900 pM | 6 of 6
KAQLTHEGQPRNHNSIA | EGISRTT | QQYFRLPLM | 1.1 nM | 6 of 6
KSMQSWLYESRNKNSVA | GASTRES | QQYHRLPLS | 710 pM | 6 of 6
KSSQSVLPQSRNHNSVA | DASTRES | QQYHRLPLS | 1.6 nM | 6 of 6
KLSQSWEGEERNKNSVA | SASTREQ | QQYHRLPLS | 500 pM | 6 of 6
KLSMTHEMEHVNRNSVA | ELVTRMK | QQYNRLPLS | 1.3 nM | 6 of 6
SLSPFMDTDNNKYDSVA | NTANIDI | QQYDRLPLS | 100 nM | 3 of 6
KIGMTLNQLQEKKNNVA | DLVYREN | QQYHRLPLS | 43 nM | 5 of 6
MISQIYNMGTFAINSVA | QASIRNA | QQYDRLPLI | 25 nM | 6 of 6
QIAGKLQHGGNQGDNIA | QGVETKN | QQYYTLPLT | no signal | 0 of 6
NFSQMVLTGSTLKNSVA | HATTREE | QQYHRLPLI | 7.3 nM | 6 of 6
KLRESYHVESKQKNNVA | DNSTRES | QDYHRLPLS | no signal | 0 of 6

Second part, the sequence after the result:

Kd (apparent) | detected | CDR-L1 | CDR-L2 | CDR-L3
4.0 nM | 6 of 6 | KLSWVVLYESRNKNSVA | NASTRES | QQYHRLPLS
1.1 nM | 6 of 6 | KLQTLTYTANIGESSVA | DVNTHVD | QQYFRLPLS
1.7 nM | 6 of 6 | KAMQSWLYESRNKNSVA | GASTRES | QQYHRLPLI
35 nM | 6 of 6 | KTSQSVLYQSRNKNSVA | NASTRES | QAYHRLPLS
610 nM | 5 of 6 | TISQSTYWETFNKNSVA | QTSTREE | QDYDRLPLS
5.8 nM | 6 of 6 | KFSQSVLYELRTKNSVA | NASERIS | QQYHRLPLS
4.5 nM | 6 of 6 | HLGGLMTWESKAKNSVA | QQNTRAE | QQYHRLPLS
32 nM | 6 of 6 | TIGGTLMYGSRNRSNVA | EVSQRLN | QQYDRLPLL
9.6 nM | 6 of 6 | KFEQWMFSQNRDDNSIA | HADDLVT | QQYSQLPLT
no signal | 0 of 6 | KSSQSVLYQARNKNSVA | WASTRES | QQYKRLPLS
2.0 nM | 6 of 6 | KLWESVLGESRMQNAVA | SASTRES | QQYHRLPLS
900 pM | 6 of 6 | KVEQSMLYESRNKNSVA | NASQRES | QQYHRLPLS
52 nM | 3 of 6 | KLSQSVRMESFVKDNVA | ENSTREA | QDYHRLPLS
490 nM | 1 of 6 | KSSQSELYESRNFNSVA | WASTRES | QQYHRNPLS
420 pM | 6 of 6 | KSYISQLYESRNKNSVA | EASTRES | QQYHRLPLS
240 nM | 6 of 6 | MIHESYGNMVMKKNSIA | DNTTREN | QQYDRLPLS
54 nM | 6 of 6 | KSSQSVLYESDNVNSVA | WASTRFS | QQYHRLPLS
2.7 nM | 6 of 6 | HLNLEYMQMMKDHNSIA | DTEHKTK | QQYFRLPIS
1.9 nM | 6 of 6 | KIDQSVEYESRDKNSVA | NASTREQ | QQYHRLPLS
1.9 nM | 6 of 6 | KFSQWQLYESRTKNSVA | NASTRES | QQYHRLPLS
7.0 nM | 6 of 6 | NLGQKMSLETEQRNSIA | DMTVREY | QQYSRIPLI
1.5 nM | 6 of 6 | KSSSSYLYESRNKNSVA | AASTRES | QQYHRLPLS
1.5 nM | 6 of 6 | KSLQSQGYESRNKNSVA | HASTRED | QQYHRLPLS
2.4 nM | 6 of 6 | KIYQLGLGSQKIMRNIA | ETSTREL | QSYNRLPLS
17 nM | 6 of 6 | KSSQSVSYESRNKNSVA | AASTRES | GQYHRLPLS
7.3 nM | 6 of 6 | HTQHLGFGDPKHWNSIA | EVSQVCS | QQYMRLPLT
290 pM | 6 of 6 | KFSQSVLYQSRNKNSVA | DASTRES | QQYHRLPLS
830 pM | 6 of 6 | KHSQGVLYESRNKNSVA | GASTRES | QQYHRLPLS
1.2 nM | 6 of 6 | KLSAMTYRESMHENNVA | DLRARVE | QQYHRLPLS
58 nM | 6 of 6 | MVSQLMLWGHLAKNSIA | EAEHRYN | QQYDRLPLF
62 nM | 6 of 6 | KSSQSVLYEERNKNSVA | WGSTRES | QQYHRLPLS
40 nM | 6 of 6 | KLSQGVLMESRNKNSVA | EASCREE | QQYHRLPLS
440 pM | 6 of 6 | KMSPSELYQDRNSNAVA | QASQRES | QQYHRLPLS
1.8 nM | 6 of 6 | KLYQSHLYESRNKNSVA | NASYRES | QQYHRLPLS

The 8 strongest on average among those seen in every replicate, once more:

CDR-L1,CDR-L2,CDR-L3,Kd (apparent),detected
KFSQSVLYQSRNKNSVA,DASTRES,QQYHRLPLS,290 pM,6 of 6
KSYISQLYESRNKNSVA,EASTRES,QQYHRLPLS,420 pM,6 of 6
KMSPSELYQDRNSNAVA,QASQRES,QQYHRLPLS,440 pM,6 of 6
KMSQAVWYESRNKNSVA,EASLREQ,QQYHRLPLS,460 pM,6 of 6
KLSQSWEGEERNKNSVA,SASTREQ,QQYHRLPLS,500 pM,6 of 6
KLSQSVLYESRNKNSVA,EASERES,QQYHRLPLS,540 pM,6 of 6
KVQQSQLYESRNKNSVA,EASTRES,QQYHRLPLS,580 pM,6 of 6
KFSQSYLYESRNSNSVA,NASTRES,QQYHRLPLS,660 pM,6 of 6

Of ten entries with the parent sequence, four were seen in most replicates (averages 2.2 nM to 240 nM), three in one and three in none, so single entries are noisy.
In the paper, a design with two or fewer of six values counts as a poor binder.
A sequence measured in both rounds can read differently, since the two assays cover different ranges.

From the AlphaSeq antibody data of Li et al. 2023 (doi:10.1038/s41467-023-39022-2), copy in the FLAb collection.